{
  "source": "paper PMC3497018",
  "about": "“Anti-Human Rhinoviral Activity of Polybromocatechol Compounds Isolated from the Rhodophyta, Neorhodomela aculeata” (Marine Drugs, 2012)",
  "key": {"HeLa cells": {"tested_on": "HeLa cells", "assay": "Microscopic observation of morphology of non-infected HeLa cells treated with compound", "conditions": "20 μg/mL, 2 days", "experimental": "After a 2-day infection of HeLa cells with HRV2 and HRV3, the effect of compound 1 and compound 3 on HRV-induced cytopathic effect (CPE) investigated.\nFigure 3 The effect of compound 1 or compound 3 on HRV2 (left group; I) and HRV 3 (right group; II)-induced CPE. The virus-infected cells were treated with compound 1 or compound 3 of 20 μg/mL. After incubation at 32 °C in 5% of CO2 for 2 days, the cell morphology was photographed under a microscope.\nBriefly, HeLa cells were seeded onto a 96-well culture plate at a concentration of 2 × 10^4 cells per well. The next day, the medium was removed and washed with PBS. Then, 0.09 mL of diluted virus suspension and 0.01 mL of medium supplemented with 20 mM MgCl2 containing compound 1 or compound 3 of 20 μg/mL were added. After incubation at 32 °C in 5% CO2 for 2 days, the morphology of cells was observed under microscope of 32 × 10 magnifications (St Ernst-Leitz, Wetzlar, Germany), and images were recorded."}, "HRV2": {"tested_on": "HRV2", "assay": "Antiviral activity, SRB method using CPE reduction, HRV2-infected HeLa cells", "assay_type": "cell-based, human rhinovirus", "experimental": "(§1) HRV 2 and 3 were provided by the ATCC (American Type Culture Collection, Manassas, VA, USA) and were propagated in human epitheloid carcinoma cervix (HeLa) cells at 32 °C. HeLa cells were maintained in minimal essential medium (MEM) supplemented with 10% fetal bovine serum (FBS) and 0.01% antibiotic-antimycotic.\n(§2) Assays of antiviral activity and cytotoxicity were evaluated by the SRB method using CPE reduction, recently reported. […] Next day, medium was removed and then washed with 1× phosphate buffered saline (PBS). Infectivity of virus stock was determined by the SRB method using cytopathic effect (CPE) reduction and was determined as infectivity of the virus by SRB ID50 (50% infective dose). […] The antiviral activity of each test material was determined with a 10-fold diluted concentration ranging from 0.1 to 100 μg/mL. Three wells were used as virus controls (virus-infected non-drug-treated cells) while three wells were used as cell controls (non-infected non-drug-treated cells). The culture plates were incubated at 37 °C in 5% CO2 for 2 days. […] The absorbance was read at 540 nm by using a VERSAmax microplate reader (Molecular Devices, Palo Alto, CA, USA) with a reference absorbance at 620 nm. […] The percent protection achieved by the test compound in HRV2 or HRV3-infected cells was calculated by the following formula: […]"}, "HRV3": {"tested_on": "HRV3", "assay": "Antiviral activity, SRB method using CPE reduction, HRV3-infected HeLa cells", "assay_type": "cell-based, human rhinovirus", "experimental": "as §1, §2"}},
  "data": [
    {"smiles": "NC(=O)c1ncn([C@@H]2O[C@H](CO)[C@@H](O)[C@H]2O)n1", "note": "[Ribavirin, reference compound]", "values": [
      {"measurement": "signs of cytotoxicity / cell morphology", "setting": "HeLa cells", "value": "No signs of cytotoxicity"},
      {"measurement": "TI, therapeutic index = CC50/IC50", "setting": "HRV2; Table 2", "value": 1.17},
      {"measurement": "TI, therapeutic index = CC50/IC50", "setting": "HRV2; Table 4", "value": 9.30},
      {"measurement": "TI, therapeutic index = CC50/IC50", "setting": "HRV3; Table 2", "value": 1.40},
      {"measurement": "TI, therapeutic index = CC50/IC50", "setting": "HRV3; Table 4", "value": 3.93}
    ]}
  ]
}
